Counter-ions that a name gives are not always drawn.
system: Ba/F3 EML4-ALK L1196M cells; format: cell-based, rodent; settings: Ba/F3 EML4-ALK L1196M cells; method as Experimental Example 4; type of value not given

| Compound | BaF3 EML4 ALK L1196M |
| --- | --- |
| COc1ccc(C2(CN)CCCC2)cc1Nc1ncc(Cl)c(Nc2ccccc2S(=O)(=O)C(C)C)n1 [Example 1, N2-(5-(1-(aminomethyl)cyclopentyl)-2-methoxyphenyl)-5-chloro-N4-(2-(isopropylsulfonyl)phenyl)pyrimidine-2,4-diamine] | 1.46 µM |
| COc1ccc(CC2(N)CC2)cc1Nc1ncc(Cl)c(Nc2ccccc2S(=O)(=O)C(C)C)n1 [Example 3, N2-(5-((1-aminocyclopropyl)methyl)-2-methoxyphenyl)-5-chloro-N4-(2-(isopropylsulfonyl)phenyl)pyrimidine-2,4-diamine] | 0.18 µM |
| COc1ccc(C2(CN3CCCCC3)CCCC2)cc1Nc1ncc(Cl)c(Nc2ccccc2S(=O)(=O)C(C)C)n1 [Example 5] | 2 µM |
| COc1ccc(C2(CN3CCOCC3)CCCC2)cc1Nc1ncc(Cl)c(Nc2ccccc2S(=O)(=O)C(C)C)n1 [Example 6, 5-chloro-N4-(2-(isopropylsulfonyl)phenyl)-N2-(2-methoxy-5-(1-(morpholinomethyl)cyclopentyl)phenyl)pyrimidine-2,4-diamine] | 2.1 µM |
| COc1ccc(CCNS(C)(=O)=O)cc1Nc1ncc(Cl)c(Nc2ccccc2S(=O)(=O)C(C)C)n1 [Example 8, N-(3-(5-chloro-4-(2-(isopropylsulfonyl)phenylamino)pyrimidine-2-ylamino)-4-methoxyphenethyl) methanesulfonamide] | 0.97 µM |
| CNCCc1ccc(OC)c(Nc2ncc(Cl)c(Nc3ccccc3S(=O)(=O)C(C)C)n2)c1 [Example 10, 5-chloro-N4-(2-(isopropylsulfonyl)phenyl)-N2-(2-methoxy-5-(2-(methylamino)ethyl)phenyl)pyrimidine-2,4-diamine] | 0.73 µM |
| COc1ccc(CCNC(=O)Cc2ccccc2)cc1Nc1ncc(Cl)c(Nc2ccccc2S(=O)(=O)C(C)C)n1 [Example 12, N-(3-(5-chloro-4-(2-(isopropylsulfonyl)phenylamino)pyrimidine-2-ylamino)-4-methoxyphenethyl)-2-phenylacetamide] | 0.97 µM |
| CCNCCc1ccc(OC)c(Nc2ncc(Cl)c(Nc3ccccc3S(=O)(=O)C(C)C)n2)c1 [Example 13, 5-chloro-N2-(5-(2-(ethylamino)ethyl)-2-methoxyphenyl)-N4-(2-(isopropylsulfonyl)phenyl)pyrimidine-2,4-diamine] | 0.73 µM |
| COc1ccc(CCNC(C)C)cc1Nc1ncc(Cl)c(Nc2ccccc2S(=O)(=O)C(C)C)n1 [Example 15, 5-chloro-N2-(5-(2-(isopropylamino)ethyl)-2-methoxyphenyl)-N4-(2-(isopropylsulfonyl)phenyl)pyrimidine-2,4-diamine] | 0.68 µM |
| CCNC(=O)NCCc1ccc(OC)c(Nc2ncc(Cl)c(Nc3ccccc3S(=O)(=O)C(C)C)n2)c1 [Example 16, 1-(3-(5-chloro-4-(2-(isopropylsulfonyl)phenylamino)pyrimidine-2-ylamino)-4-methoxyphenethyl)-3-ethylurea] | 0.8 µM |
| COc1ccc(CCNC(=O)NC2CCCCC2)cc1Nc1ncc(Cl)c(Nc2ccccc2S(=O)(=O)C(C)C)n1 [Example 17, 1-(3-(5-chloro-4-(2-(isopropylsulfonyl)phenylamino)pyrimidine-2-ylamino)-4-methoxyphenethyl)-3-cyclohexylurea] | 0.88 µM |
| COc1ccc(CCNC(=O)Nc2ccccc2)cc1Nc1ncc(Cl)c(Nc2ccccc2S(=O)(=O)C(C)C)n1 [Example 18, 1-(3-(5-chloro-4-(2-(isopropylsulfonyl)phenylamino)pyrimidine-2-ylamino)-4-methoxyphenethyl)-3-phenylurea] | 1.9 µM |
| CNC(=S)NCCc1ccc(OC)c(Nc2ncc(Cl)c(Nc3ccccc3S(=O)(=O)C(C)C)n2)c1 [Example 19, 1-(3-(5-chloro-4-(2-(isopropylsulfonyl)phenylamino)pyrimidine-2-ylamino)-4-methoxyphenethyl)-3-methylthiourea] | 1.1 µM |
| COc1ccc(CCNC(=S)NCc2ccccc2)cc1Nc1ncc(Cl)c(Nc2ccccc2S(=O)(=O)C(C)C)n1 [Example 20, 1-benzyl-3-(3-(5-chloro-4-(2-(isopropylsulfonyl)phenylamino)pyrimidine-2-ylamino)-4-methoxyphenethyl)thiourea] | 0.41 µM |
| COc1ccc(CCN2CCCCC2)cc1Nc1ncc(Cl)c(Nc2ccccc2S(=O)(=O)C(C)C)n1 [Example 21, 5-chloro-N4-(2-(isopropylsulfonyl)phenyl)-N2-(2-methoxy-5-(2-(piperidine-1-yl)ethyl)phenyl)pyrimidine-2,4-diamine] | 0.09 µM |
| COc1ccc(CCN2CCOCC2)cc1Nc1ncc(Cl)c(Nc2ccccc2S(=O)(=O)C(C)C)n1 [Example 22, 5-chloro-N4-(2-(isopropylsulfonyl)phenyl)-N2-(2-methoxy-5-(2-morpholinoethyl)phenyl)pyrimidine-2,4-diamine] | 0.28 µM |

| Compound | BaF3 EML4 ALK L1196M |
| --- | --- |
| CCNC(=S)NCCc1ccc(OC)c(Nc2ncc(Cl)c(Nc3ccccc3S(=O)(=O)C(C)C)n2)c1 [Example 23, 1-(3-(5-chloro-4-(2-(isopropylsulfonyl)phenylamino)pyrimidine-2-ylamino)-4-methoxyphenethyl)-3-ethylthiourea] | 1.9 µM |
| COc1ccc(CCNCC(=O)O)cc1Nc1ncc(Cl)c(Nc2ccccc2S(=O)(=O)C(C)C)n1 [Example 27, 2-(3-(5-chloro-4-(2-(isopropylsulfonyl)phenylamino)pyrimidine-2-ylamino)-4-methoxyphenethylamino)acetic acid] | 0.64 µM |
| COc1ccc(CNC(=O)C(F)(F)F)cc1Nc1ncc(Cl)c(Nc2ccccc2S(=O)(=O)C(C)C)n1 [Example 28, N-(3-((5-chloro-4-((2-(isopropylsulfonyl)phenyl)amino)pyrimidine-2-yl)amino)-4-methoxybenzyl)-2,2,2-trifluoroacetamide] | 0.8 µM |
| COc1ccc(CN)cc1Nc1ncc(Cl)c(Nc2ccccc2S(=O)(=O)C(C)C)n1 [Example 29, N2-(5-(aminomethyl)-2-methoxyphenyl)-5-chloro-N4-(2-(isopropylsulfonyl)phenyl)pyrimidine-2,4-diamine] | 0.12 µM |
| COc1ccc(CCNC(=O)C(F)(F)F)cc1Nc1ncc(Cl)c(Nc2ccccc2S(=O)(=O)C(C)C)n1 [Example 30, N-(3-(5-chloro-4-(2-(isopropylsulfonyl)phenylamino)pyrimidine-2-ylamino)-4-methoxyphenethyl)-2,2,2-trifluoroacetamide] | 0.32 µM |
| CC(C)Oc1ccc(CCN)cc1Nc1ncc(Cl)c(Nc2ccccc2S(=O)(=O)C(C)C)n1 [Example 31, N2-(5-(2-aminoethyl)-2-isopropoxyphenyl)-5-chloro-N4-(2-(isopropylsulfonyl)phenyl)pyrimidine-2,4-diamine] | 1.2 µM |
| COc1ccc(CCN)cc1Nc1ncc(Cl)c(Nc2ccc(F)cc2S(=O)(=O)C(C)C)n1 [Example 32, N2-(5-(2-aminoethyl)-2-methoxyphenyl)-5-chloro-N4-(4-fluoro-2-(isopropylsulfonyl)phenyl)pyrimidine-2,4-diamine] | 1.8 µM |
| COc1ccc(CCN)cc1Nc1ncc(Cl)c(Nc2cc(F)ccc2S(=O)(=O)C(C)C)n1 [Example 33, N2-(5-(2-aminoethyl)-2-methoxyphenyl)-5-chloro-N4-(5-fluoro-2-(isopropylsulfonyl)phenyl)pyrimidine-2,4-diaminehydrochloride] | 10 µM |
| COc1ccc(CCN)cc1Nc1ncc(Cl)c(Nc2c(F)cccc2S(=O)(=O)C(C)C)n1 [Example 34, N2-(5-(2-aminoethyl)-2-methoxyphenyl)-5-chloro-N4-(2-fluoro-6-(isopropylsulfonyl)phenyl)pyrimidine-2,4-diaminehydrochloride] | 10 µM |
| COc1ccc(C(C)(C)CN)cc1Nc1ncc(Cl)c(Nc2ccccc2S(=O)(=O)C(C)C)n1 [Example 35, N2-(5-(1-amino-2-methylpropane-2-yl)-2-methoxyphenyl)-5-chloro-N4-(2-(isopropylsulfonyl)phenyl)pyrimidine-2,4-diamine] | 5 µM |
| COc1ccc(C(C)(C)CN)cc1Nc1ncc(Cl)c(Nc2ccc(F)cc2S(=O)(=O)C(C)C)n1 [Example 36, N2-(5-(1-amino-2-methylpropane-2-yl)-2-methoxyphenyl)-5-chloro-N4-(4-fluoro-2-(isopropylsulfonyl)phenyl)pyrimidine-2,4-diamine] | 10 µM |
| COc1ccc(C(C)(C)CN)cc1Nc1ncc(Cl)c(Nc2cc(F)ccc2S(=O)(=O)C(C)C)n1 [Example 37, N2-(5-(1-amino-2-methylpropane-2-yl)-2-methoxyphenyl)-5-chloro-N4-(5-fluoro-2-(isopropylsulfonyl)phenyl)pyrimidine-2,4-diamine] | 10 µM |
| COc1ccc(C(C)(C)CN)cc1Nc1ncc(Cl)c(Nc2c(F)cccc2S(=O)(=O)C(C)C)n1 [Example 38, N2-(5-(1-amino-2-methylpropane-2-yl)-2-methoxyphenyl)-5-chloro-N4-(2-fluoro-6-(isopropylsulfonyl)phenyl)pyrimidine-2,4-diamine] | 10 µM |
| COc1ccc(CCN(CCO)CCO)cc1Nc1ncc(Cl)c(Nc2ccccc2S(=O)(=O)C(C)C)n1 [Example 39, 2,2′-(3-(5-chloro-4-(2-(isopropylsulfonyl)phenylamino)pyrimidine-2-ylamino)-4-methoxyphenethylazeindiyl)diethanol] | 1.8 µM |
| COc1ccc(CCCNC(=O)C(F)(F)F)cc1Nc1ncc(Cl)c(Nc2ccccc2S(=O)(=O)C(C)C)n1 [Example 40, N-(3-(3-((5-chloro-4-((2-(isopropylsulfonyl)phenyl)amino)pyrimidine-2-yl)amino)-4-methoxyphenyl)propyl)-2,2,2-trifluoroacetamide] | 1.5 µM |
| COc1ccc(CCCN)cc1Nc1ncc(Cl)c(Nc2ccccc2S(=O)(=O)C(C)C)n1 [Example 41, N2-(5-(3-aminopropyl)-2-methoxyphenyl)-5-chloro-N4-(2-(isopropylsulfonyl)phenyl)pyrimidine-2,4-diamine] | 0.49 µM |

Source: US10100019B2
